Consider one substance from US20080261863A1 (priority 2004, published 2008).

Where only a bound is given, the exact number is not on record here.

One series has as its target T1, VPAC2 receptor (Homo sapiens, UniProt P41587).
T1 construct: expressed in transfected cells; host or cells: CHO cells under hygromycin and Geneticin selection
T1 sequence (P41587 24-438): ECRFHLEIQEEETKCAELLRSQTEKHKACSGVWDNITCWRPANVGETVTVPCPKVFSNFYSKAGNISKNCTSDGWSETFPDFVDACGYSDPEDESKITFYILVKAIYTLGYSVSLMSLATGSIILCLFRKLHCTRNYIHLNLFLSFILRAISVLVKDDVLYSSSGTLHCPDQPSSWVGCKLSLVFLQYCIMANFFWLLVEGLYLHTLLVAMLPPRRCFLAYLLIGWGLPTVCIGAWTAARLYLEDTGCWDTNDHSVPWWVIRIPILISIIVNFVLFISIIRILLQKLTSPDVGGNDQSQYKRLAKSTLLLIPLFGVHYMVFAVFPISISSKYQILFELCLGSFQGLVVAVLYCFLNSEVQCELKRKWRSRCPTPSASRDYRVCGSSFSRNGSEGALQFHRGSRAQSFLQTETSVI
Briefly: Cyclic AMP SPA in CHO cells expressing VPAC2. Format: cell-based. The settings on record: cAMP SPA. The source says: The media was removed and the plates were washed with PBS. […] The amount of cAMP (in pmol) produced at each concentration of peptide was plotted and analyzed by nonlinear regression using Prizm software to determine the EC50 for each peptide.

The conditions of series [1]: cited from earlier work.
A further series concerns heart rate in dogs. As to conditions: intravenously at 0.1 nmol/kg; cited from earlier work.

Usually EC50 stands for the concentration needed to bring the measured effect to its halfway point. Higher therefore signals weaker potency.

On VPAC2 receptor, PACAP-27 registered an EC50 of 0.09 nM. The half-life in vivo in series [1] is under 10 min. In the series on heart rate in dogs, the “effect on heart rate” value is “two-fold”.
